For two compounds, Ratio IC50 results are on record in ChEMBL document CHEMBL4431321, “Profiling of Flavonol Derivatives for the Development of Antitrypanosomatidic Drugs” (J Med Chem, 2016).

Bounds are passed on as bounds.

Assay [1] in a line: Selectivity index, ratio of IC50 for human DHFR to IC50 for Trypanosoma brucei PTR1.
Assay [2] is described as follows: Selectivity index, ratio of IC50 for human ERG to IC50 for Trypanosoma brucei PTR1.
The nature of assay [3]: Selectivity index, ratio of IC50 for human thymidylate synthase to IC50 for Trypanosoma brucei PTR1.

As to `O=c1c(O)c(-c2cccc(O)c2)oc2ccc(O)cc12`, the Ratio IC50 is greater than 10 in assay [1] and greater than 20 in assay [2].

In the case of `COc1cc(-c2oc3cc(O)cc(O)c3c(=O)c2O)ccc1O` [ISORHAMNETIN], the Ratio IC50 was greater than 35 in assay [3] and 36 in assay [1].
